# Entries after “also recorded” stand apart in the source; their conditions may differ.
# Tested on: phosphorylated CaMKII
# Experiment: pCaMKII activation in human colonic mucosa / proximal colon
# Format: cell-based
compound,measurement,value
"Cc1ccc(-c2ccc(F)cc2COc2ccc(CCC(=O)O)cc2)cc1 [TUG891, 3-(4-((4-fluoro-4′-methyl-[1,1′-biphenyl]-2-yl)methoxy)phenyl)propanoic acid]",activation of 5-HT positive (EC) cells,some activated cells identified as EC cells
same,activation of intracellular pathway driven by phosphorylated CaMKII,preferentially activates; also recorded: only activates
same,cellular activation as measured by expression of pCAMKII,significantly increases

# — patent US12533333B2, “Method of treatment of obesity” (Queen Mary University of London, priority 2016, dated 2026)
